Experimental findings from the Kinase Knowledgebase extract (Sharma et al. 2016) are described below.

The chains behind the UniProt entries cited, without tags or fusion partners.
UniProt P42336, whole entry, looked up: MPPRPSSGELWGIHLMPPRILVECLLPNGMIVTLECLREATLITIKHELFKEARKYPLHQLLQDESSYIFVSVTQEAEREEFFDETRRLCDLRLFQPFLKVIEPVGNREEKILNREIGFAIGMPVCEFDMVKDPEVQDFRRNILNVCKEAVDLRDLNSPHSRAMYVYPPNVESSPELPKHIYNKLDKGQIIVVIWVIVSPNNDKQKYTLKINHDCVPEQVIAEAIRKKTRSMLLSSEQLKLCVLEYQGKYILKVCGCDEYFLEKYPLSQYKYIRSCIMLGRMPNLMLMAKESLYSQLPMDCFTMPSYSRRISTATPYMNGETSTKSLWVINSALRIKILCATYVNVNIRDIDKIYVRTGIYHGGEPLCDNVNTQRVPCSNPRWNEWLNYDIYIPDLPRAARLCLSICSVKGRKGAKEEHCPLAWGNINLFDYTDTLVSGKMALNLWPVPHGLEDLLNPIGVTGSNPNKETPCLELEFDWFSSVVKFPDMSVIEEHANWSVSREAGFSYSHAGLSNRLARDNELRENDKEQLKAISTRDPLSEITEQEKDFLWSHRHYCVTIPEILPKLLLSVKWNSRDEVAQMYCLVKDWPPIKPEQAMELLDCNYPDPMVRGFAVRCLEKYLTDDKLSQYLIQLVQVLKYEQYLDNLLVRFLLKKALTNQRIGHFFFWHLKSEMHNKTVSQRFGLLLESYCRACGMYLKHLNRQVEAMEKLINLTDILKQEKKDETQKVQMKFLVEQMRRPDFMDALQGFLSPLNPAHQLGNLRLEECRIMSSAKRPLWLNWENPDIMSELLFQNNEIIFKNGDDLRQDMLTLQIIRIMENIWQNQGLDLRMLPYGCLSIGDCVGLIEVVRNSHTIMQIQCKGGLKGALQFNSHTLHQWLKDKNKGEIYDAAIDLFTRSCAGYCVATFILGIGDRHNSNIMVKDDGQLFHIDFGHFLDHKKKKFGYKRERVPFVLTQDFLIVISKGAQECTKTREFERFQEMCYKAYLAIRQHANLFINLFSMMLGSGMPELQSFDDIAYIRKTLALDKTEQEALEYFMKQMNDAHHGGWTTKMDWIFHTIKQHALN

The target in this assay is PIK3CA (human) (UniProt P42336). The assay is described as follows: Cell-Based Assay. Particulars: bt474.

For the molecule `Cn1c(=O)n([C@H]2CCOC2)c2c3cc(-c4ccc(OCCCN5CCCCC5)nc4)ccc3ncc21`, the IC50 is over 9.13 µM.
